Screening results (PubChem)
Compounds with a hit are over-represented: about 1.5% of the library has one in this group of screens.
GSIS activator – GLuc luminescence reporter in INS-1E cells, primary screen for activators of glucose-dependent secretion of insulin | INS-1E GLuc reporter insulin secretion, 2-3 h | activation, % at 16.6 µM | 0.61% of 370,000 active;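 active means lowest replicate activation of at least 40%, so every replicate reaches that level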;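 further: 0% = median of neutral control wells and 100% = median of IBMX positive control wells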
RAD52 anneal inh – RAD52 DNA annealing inhibitors, primary screen, biochemical, FRET, single point, set 2. inhibition, % at 18.7 µM. recombinant RAD52 DNA annealing, FRET fluorescence. DNA repair protein RAD52 homolog (Homo sapiens), P43351. 0.46% of 360,000 active;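 active means every replicate showing at least 50% inhibition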
RAD54 inh – inhibitors of human RAD54 branch migration, primary screen, biochemical, fluorescence, single point; DNA repair and recombination protein RAD54-like (Homo sapiens), Q92698; RAD54 Holliday junction branch migration, FAM/BHQ fluorescence; inhibition, % at 10.4 µM; 0.14% of 360,000 active;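 active means mean normalized replicate activity at least 40 and at least half of replicates scoring 40 or more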;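 further: 0% = median of neutral control wells and 100% = median of positive control wells; inhibitors cause a drop in the FAM fluorescence signal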
UUG fidelity – yeast start codon fidelity modulation | S. cerevisiae UUG-firefly luciferase reporter, luminescence/redox ratio | activity score, % at 18.7 µM | hit rate 0.13% among 350,000 | AID 602363;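 active means replicate mean at a twofold rise or more, about +100% in these data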;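 further: firefly luciferase made from a UUG start codon reports start codon fidelity; reporter light over untreated wells divided by growth signal over untreated wells; some hits fall short of that in this replicate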
PglD DTNB – C. jejuni PglD acetyltransferase inhibitors, primary screen, biochemical, DTNB colorimetric, single point | UDP-N-acetylbacillosamine N-acetyltransferase PglD (Campylobacter jejuni) | purified PglD enzyme, DTNB colorimetric CoA detection | inhibition, % at 12.5 µM | 0.098% of 360,000 active; in the data active means inhibition above about 16%, passing the limit was not always enough
Casp6 inh – human caspase-6 inhibitors, primary screen, biochemical, VEID-R110 fluorescence, single point, set 2. P55212. AID 686996, 2013. purified caspase-6, Z-VEID-R110 cleavage fluorescence. 0.53% of 350,000 active. inhibition, % at 12.5 µM;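 active means mean inhibition across replicates at least about 35%, with every replicate also reaching that limit, limit read from the data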;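 further: 0% = median of neutral control wells and 100% = no fluorescence left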
Starred values were filed as active, the others as inactive; · = not tested or not shown.

The first 2 entries, ahead of the listing:
Short keys – A = GSIS activator; B = RAD52 anneal inh; C = RAD54 inh; D = UUG fidelity; E = PglD DTNB; F = Casp6 inh
CC1(C)Cc2c(sc(NC(=O)c3ccco3)c2C(=O)O)CO1
  A = 3.9; B = -17.9; C = 5.3; D = -7.0; E = 2.6; F = 37.5*

CC1(C)Cc2c(sc(NC(=S)NC(=O)c3ccccc3)c2C(=O)O)CO1
  A = 4.2; B = -17.4; C = ·; D = ·; E = ·; F = 4.6

The whole of this part (from the top)
Short keys – A = GSIS activator; B = RAD52 anneal inh; C = RAD54 inh; D = UUG fidelity; E = PglD DTNB; F = Casp6 inh
CC1(C)Cc2c(sc(NC(=O)c3ccco3)c2C(=O)O)CO1
  A = 3.9; B = -17.9; C = 5.3; D = -7.0; E = 2.6; F = 37.5*

CC1(C)Cc2c(sc(NC(=S)NC(=O)c3ccccc3)c2C(=O)O)CO1
  A = 4.2; B = -17.4; C = ·; D = ·; E = ·; F = 4.6

Cc1c(Cc2ccccc2)sc(NC(=O)c2ccco2)c1C(N)=O
  A = 86.0*; B = ·; C = -2.3; D = -13.7; E = 3.7; F = ·

O=C(Nc1ccc(F)cc1)N1C[C@H]2[C@@H](c3ccccc31)[C@@H](CO)N2Cc1ccccc1Cl
  A = -24.3; B = 4.7; C = -1.3; D = -6.0; E = -1.5; F = -1.5

O=C(CCN1CCOCC1)c1ccc(N2CCCCC2)cc1
  A = 51.3*; B = -11.6; C = -1.8; D = 0.3; E = -2.2; F = -10.5

CCCCC[C@@H](/C=C/C1C(=O)C=C[C@H]1C/C=C\CCCC(=O)O)OC(C)=O (some centres not stated)
  A = -10.7; B = -17.2; C = -15.3; D = -6.4; E = 3.6; F = 47.6*

CCOc1ccccc1-n1nnnc1SCC(=O)N1CCCC1=O
  A = 51.2*; B = -6.5; C = -5.7; D = -7.2; E = 5.8; F = 0.3

O=C(Cc1ccncc1)NCC[C@H]1CC[C@H](NC(=O)C2CCCC2)[C@H](CO)O1
  A = 2.2; B = 21.1; C = -28.9; D = 196.3*; E = 1.4; F = -2.6

O=C(CCN1CCCCC1)NCC[C@H]1CC[C@H](NC(=O)Cc2cccnc2)[C@H](CO)O1
  A = -3.5; B = 38.1; C = -17.9; D = 107.2*; E = 4.2; F = -0.5

O=C(NC1CCCC1)C(c1ccncc1)N(C(=O)Cn1nnc(-c2ccccc2F)n1)c1cccc(F)c1 (configuration not stated)
  A = 8.1; B = 3.0; C = 3.8; D = -15.7; E = 3.4; F = -3.1

O=C(NCCN1CCOCC1)c1ccc([N+](=O)[O-])cc1[N+](=O)[O-]
  A = ·; B = ·; C = -14.3; D = -22.1; E = 2.8; F = ·

O=[N+]([O-])c1ccc(NCCN2CCOCC2)c([N+](=O)[O-])c1
  A = -7.1; B = -8.4; C = -14.4; D = 29.1; E = -0.3; F = 41.8*

CC[C@H](C)/C=C(C)/C=C/c1cc2c(cn1)C(=O)[C@@](C)(OC(C)=O)C(O)=C2Cl
  A = 6.2; B = -31.3; C = -5.6; D = 1.1; E = 2.2; F = 51.4*

C=CCNC(=O)COc1coc(CN2CCN(C(=O)c3ccco3)CC2)cc1=O
  A = 49.2*; B = -13.4; C = -7.3; D = -25.7; E = -0.8; F = -1.9

COc1ccccc1NC(=O)N1CC[C@@H]2[C@H]1c1cc(C#Cc3ccc(F)cc3)ccc1N(C)[C@@H]2CO
  A = 13.1; B = 70.1*; C = 5.7; D = 4.0; E = 2.0; F = -1.6

COc1ccc(C#Cc2ccc3c(c2)[C@H]2[C@H](CCN2S(=O)(=O)c2ccc(OC)cc2)[C@H](CO)N3C)cc1
  A = 8.9; B = -14.0; C = 4.5; D = -24.1; E = 0.3; F = -0.3

COc1ccc(C#Cc2ccc3c(c2)[C@@H]2[C@@H](CCN2S(=O)(=O)c2cccc(OC)c2)[C@@H](CO)N3C)cc1
  A = 12.1; B = 67.1*; C = 5.0; D = 10.0; E = 0.9; F = 0.6

COc1ccccc1NC(=O)N1CC[C@H]2[C@@H]1c1cc(-c3ccc(F)cc3)ccc1N(C)[C@H]2CO
  A = 5.7; B = -10.2; C = 0.7; D = 9.5; E = 2.6; F = -1.8

COc1ccccc1NC(=O)N1CC[C@H]2[C@@H]1c1cc(-c3ccccc3)ccc1N(C)[C@H]2CO
  A = -11.4; B = 58.1*; C = 16.5; D = -19.0; E = -1.8; F = -0.1

COc1ccccc1NC(=O)N1CC[C@@H]2[C@H]1c1cc(-c3ccccc3)ccc1N(C)[C@@H]2CO
  A = 7.4; B = 51.9*; C = 16.8; D = -16.4; E = -3.0; F = 0.3

CCOc1ccc(-c2cn3ccccc3n2)cc1
  A = 6.9; B = -5.2; C = ·; D = ·; E = ·; F = -3.9

O=C(O)c1nc2ccccc2nc1C(=O)O
  A = 8.8; B = -36.3; C = -11.4; D = -2.5; E = -2.6; F = 2.9

CCCn1c(Cc2ccccc2)nnc1SCC(=O)N1CCOCC1
  A = 3.8; B = ·; C = 3.0; D = -14.9; E = 4.3; F = ·

O=C(CSc1ncn(-c2ccccc2)n1)c1cccs1
  A = ·; B = ·; C = 2.2; D = -15.3; E = -4.7; F = ·

O=c1ccc2cc(S(=O)(=O)N3CCOCC3)ccc2o1
  A = ·; B = ·; C = 3.9; D = -11.9; E = 4.2; F = ·

CCNC(=S)N1CCCCC1CO (configuration not stated)
  A = -2.5; B = -9.5; C = ·; D = ·; E = ·; F = 46.6*
